## Measured affinities in a library of Ab-14 heavy chain variants

Antigen: PDVDLGDISGINAS, a 14-residue peptide of the SARS-CoV-2 spike HR2 region.

Parent scFv Ab-14: VH joined to VL by a 15-residue (Gly4Ser)3 linker. Changes lie in the heavy chain CDRs alone.
VH: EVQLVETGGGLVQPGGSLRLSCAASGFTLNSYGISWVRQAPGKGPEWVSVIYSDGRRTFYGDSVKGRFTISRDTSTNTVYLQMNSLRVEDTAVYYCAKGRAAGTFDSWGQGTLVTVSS
VL: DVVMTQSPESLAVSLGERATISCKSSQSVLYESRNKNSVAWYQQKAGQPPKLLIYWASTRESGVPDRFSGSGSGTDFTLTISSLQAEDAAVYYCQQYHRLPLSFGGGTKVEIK

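Phage display of a naive human antibody library on the peptide gave the parent. Library AAYL49 holds single substitutions and randomly drawn double and triple substitutions in the CDRs. In AlphaSeq, yeast of one mating type display the scFv and yeast of the other type display the target. Mating (16 h, 30 °C) was followed by selection of diploids and sequencing of their barcodes. Scores were corrected for input abundance and mapped to Kd with protein pairs of known affinity run in the same pool. Mating was done three times.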

Substitutions are numbered in sequence along the VH above, starting at 1 (not Kabat). All variants listed here change G103 of the VH, counted from its first residue. Values are apparent Kd, the geometric mean of the replicates that gave a signal; lower means stronger binding. An entry "nd" has no value in the source: the pair was not observed among the diploids in any replicate. This suggests poor binding but is not conclusive. Three control strains display no target. For library AAYL49, 15% of the pairings with them gave a signal, with a median of 11 µM and one signal in twenty below 680 nM, so weak values seen in few replicates may be background.

A102K/G103A/D106W: nd (0 of 3 replicates).
S31Y/A102S/G103I: 5.6 µM (2 of 3 replicates).
I51K/K65D/G103A: 6.5 µM (1 of 3 replicates).
R56M/S63L/G103M: 4.8 µM (3 of 3 replicates).
G103W/D106Q: nd (0 of 3 replicates).
F27V/Y52Q/G103K: 110 µM (1 of 3 replicates).
A101Q/G103D/T104I: 15 µM (1 of 3 replicates).
L29A/R57T/G103K: nd (0 of 3 replicates).
G26C/R100K/G103P: nd (0 of 3 replicates).
I34M/Y52D/G103A: 61 µM (2 of 3 replicates).
I34Y/V64C/G103Y: 1.3 µM (1 of 3 replicates).
T28V/V50M/G103E: 1.5 µM (1 of 3 replicates).
I34L/S35C/G103V: 2.2 µM (1 of 3 replicates).
I51V/G103E/T104L: nd (0 of 3 replicates).
Y52F/G103L/F105G: nd (0 of 3 replicates).
I34D/G61S/G103E: nd (0 of 3 replicates).
I51T/D62E/G103E: nd (0 of 3 replicates).
Y60D/A101S/G103C: nd (0 of 3 replicates).
A102Y/G103Q: 960 nM (3 of 3 replicates).
G33L/S63D/G103W: nd (0 of 3 replicates).
S31Y/Y32T/G103F: 9.7 µM (1 of 3 replicates).
G61E/V64A/G103L: 1.2 µM (3 of 3 replicates).
R56Y/A102H/G103Y: nd (0 of 3 replicates).
F59M/G103V/D106S: nd (0 of 3 replicates).
T28F/G103Q: 8.5 µM (3 of 3 replicates).
I51T/Y52R/G103K: 540 µM (3 of 3 replicates).
V64I/G103T/D106K: nd (0 of 3 replicates).
R56L/G103C/F105E: 32 µM (2 of 3 replicates).
R100L/G103W/F105A: 600 nM (3 of 3 replicates).
D62P/G103P: nd (0 of 3 replicates).
K65T/G103Y: 30 µM (2 of 3 replicates).
F59M/V64M/G103K: 8.6 µM (2 of 3 replicates).
T58G/G103S: 15 µM (1 of 3 replicates).
D62M/G103W/T104W: nd (0 of 3 replicates).
V64Y/G103Q/S107A: 520 nM (3 of 3 replicates).
V50W/G55H/G103I: 130 µM (2 of 3 replicates).
G61I/S63L/G103P: nd (0 of 3 replicates).
R56L/A102N/G103V: 4.7 nM (3 of 3 replicates).

Reference: Engelhart et al. 2022, doi:10.1038/s41597-022-01779-4. File: FLAb, binding data.